{
  "source": "patent EP4663640A1",
  "about": "(Shanghai Institute of Materia Medica, Chinese Academy of …, priority 2023, dated 2024)",
  "biological_target": "T1, hTRPC5 (Homo sapiens, UniProt Q9UL62)",
  "T1 construct": "expressed in transfected cells; host or cells: HEK-293",
  "T1 sequence (Q9UL62 1-973)": "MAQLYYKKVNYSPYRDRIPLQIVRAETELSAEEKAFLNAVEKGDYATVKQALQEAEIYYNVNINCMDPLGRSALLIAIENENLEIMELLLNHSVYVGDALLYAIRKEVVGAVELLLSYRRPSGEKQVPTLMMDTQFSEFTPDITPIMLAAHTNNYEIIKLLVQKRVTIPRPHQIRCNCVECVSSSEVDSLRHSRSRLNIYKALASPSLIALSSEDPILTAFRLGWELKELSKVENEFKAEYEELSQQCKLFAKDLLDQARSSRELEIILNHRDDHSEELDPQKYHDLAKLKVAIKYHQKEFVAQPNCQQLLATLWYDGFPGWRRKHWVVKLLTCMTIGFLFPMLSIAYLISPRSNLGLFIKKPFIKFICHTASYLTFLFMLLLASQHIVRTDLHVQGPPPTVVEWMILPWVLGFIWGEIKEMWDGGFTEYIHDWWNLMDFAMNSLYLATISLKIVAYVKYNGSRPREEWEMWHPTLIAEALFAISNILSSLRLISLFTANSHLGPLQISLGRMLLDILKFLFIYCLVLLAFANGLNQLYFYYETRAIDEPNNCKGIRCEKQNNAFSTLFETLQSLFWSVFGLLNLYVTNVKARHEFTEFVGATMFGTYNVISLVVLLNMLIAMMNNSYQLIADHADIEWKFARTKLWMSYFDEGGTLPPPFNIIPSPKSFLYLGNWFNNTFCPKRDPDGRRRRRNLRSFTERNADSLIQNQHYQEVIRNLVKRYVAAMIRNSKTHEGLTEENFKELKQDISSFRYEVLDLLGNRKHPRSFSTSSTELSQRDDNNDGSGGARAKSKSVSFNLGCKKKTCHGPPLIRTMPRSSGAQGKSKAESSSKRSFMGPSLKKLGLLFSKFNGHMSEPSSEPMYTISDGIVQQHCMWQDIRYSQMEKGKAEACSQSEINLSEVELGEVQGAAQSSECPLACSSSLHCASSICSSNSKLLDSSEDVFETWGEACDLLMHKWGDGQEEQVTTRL",
  "experiment": "TRPC5 inhibitory activity assay (FLIPR calcium fluorescence, Englerin A stimulation)",
  "type": "cell-based",
  "data": [
    {"molecule": "Cn1c(=O)n(CCCO)c(=O)c2c1cc(C1CC1C1CCCC1)n2Cc1ccc(Cl)cc1", "note": "(stereo not shown) [Example E3, 5-(4-chlorobenzyl)-6-(2-cyclopentylcyclopropyl)-3-(3-hydroxypropyl)-1-methyl-1,5-dihydro-2H-pyrrolo[3,2-d]pyrimidine-2,4(3H)-dione]", "values": [
      {"measurement": "IC50", "value": "50 to 100", "unit": "nM"}
    ]}
  ]
}
